# Measured values from PubChem BioAssay AID538 (PCMD, 2006).
# Protein sequences, listed by entry. Tags and fused reporters are not part of them. Lines headed by an entry give the natural chain unless they say otherwise; changes in a name come on top.
# UniProt P09871: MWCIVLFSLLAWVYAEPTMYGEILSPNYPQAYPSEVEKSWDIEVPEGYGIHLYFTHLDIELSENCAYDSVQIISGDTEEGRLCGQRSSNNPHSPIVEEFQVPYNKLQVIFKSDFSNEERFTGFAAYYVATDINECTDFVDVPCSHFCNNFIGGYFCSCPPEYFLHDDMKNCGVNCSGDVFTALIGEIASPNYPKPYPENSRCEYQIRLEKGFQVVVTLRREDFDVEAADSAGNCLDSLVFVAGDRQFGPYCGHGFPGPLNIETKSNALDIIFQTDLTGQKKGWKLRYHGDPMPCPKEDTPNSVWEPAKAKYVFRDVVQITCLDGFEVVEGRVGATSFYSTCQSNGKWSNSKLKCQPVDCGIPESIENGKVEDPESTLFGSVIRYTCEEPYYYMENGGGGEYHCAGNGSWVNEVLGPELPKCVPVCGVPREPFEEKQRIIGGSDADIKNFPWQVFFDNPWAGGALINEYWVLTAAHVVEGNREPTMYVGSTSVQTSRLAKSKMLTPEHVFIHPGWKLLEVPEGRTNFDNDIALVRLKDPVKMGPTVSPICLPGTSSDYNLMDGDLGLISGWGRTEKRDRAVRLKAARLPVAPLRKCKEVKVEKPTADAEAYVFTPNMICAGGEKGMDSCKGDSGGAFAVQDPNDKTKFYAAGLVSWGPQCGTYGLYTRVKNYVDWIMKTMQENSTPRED
# Only a part is listed here, and it is no random draw. The source made the active and inactive calls.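 The calls were made as follows: active = inhibition above 20% in each of the two 10-compound mixture wells holding the compound; inactive = the rest.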
# Target: Complement C1s subcomponent (Homo sapiens) (UniProt P09871)
# Experiment: complement C1s protease inhibitors, primary screen, biochemical, 10-compound mixtures (AID 538);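 also: 0% = enzyme wells lacking compound mixture and 100% = no-enzyme blank wells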
# Settings: purified C1s, fluorogenic AMC substrate, pooled mixtures; screened at 5 µM (by protocol)
row,SMILES,mean inhibition % of two 10-compound mixtures (hits give high values)
1,CCOP1(=S)c2c(C)nn(CCC#N)c2N=C(c2ccc(F)cc2)N1C (stereo not given),inactive: -0.21%
2,CCOP1(=S)c2c(C)nn(CCC#N)c2N=C(c2ccccc2F)N1C (stereo not given),inactive: -23.7%
3,O=P(Nc1nccs1)(c1ccccc1)c1nc2ccccc2s1 (stereo not given),inactive: -3.73%
4,Cc1cccc(OCC(=O)OC2CN3CCC2CC3)c1 (stereo not given),inactive: -25.7%
5,Clc1n[nH]nc1-c1nn[nH][15n]1,inactive: 2.99%
6,O=P1(Nc2ccccn2)COc2ccccc2OC1,inactive: 13.6%
7,Cc1ccc(OCC(=O)OC2CN3CCC2CC3)cc1 (stereo not given),inactive: -26.8%
8,O=P1(Nc2ccc(Br)cn2)COc2ccccc2OC1,inactive: -11.9%
9,O=P1(Nc2ncccn2)COc2ccccc2OC1,inactive: 15.2%
10,Cc1nn(-c2ccccc2)c2c1P(=O)(N1CCOCC1)N(C)C(c1ccccc1)=N2 (stereo not given),inactive: -14.7%
11,O=C(COc1ccccc1)OC1CN2CCC1CC2 (stereo not given),inactive: 12.3%
12,COP1(=S)c2c(C)nn(CCC#N)c2N=C(c2ccc(F)cc2)N1C (stereo not given),inactive: 7.35%
13,O=C(OC1CN2CCC1CC2)C12CC3CC(CC(C3)C1)C2 (stereo not given),inactive: -7.05%
14,Cc1c2non([O-])c-2c(C)[n+](=O)[n+]1[O-],inactive: 1.06%
15,CCc1nc2c(n1)c1c(non1O)c1c2no[n+]1[O-],inactive: -0.875%
16,O=C(OC1CN2CCC1CC2)c1cccc(Cl)c1 (stereo not given),inactive: -6.64%
17,c1nnnn1CCn1cnnn1,inactive: -2.29%
18,O=P(Nc1nccs1)(c1ccccc1)c1ccccc1,inactive: -15.5%
19,O=P1(Nc2nc3ccc(Cl)cc3s2)COc2ccccc2O1 (stereo not given),inactive: 2.02%
20,COC(=O)c1cc2c(s1)N=C(c1ccccc1)N(C)P2(=O)N1CCOCC1 (stereo not given),inactive: 27.4%
